# According to ChEMBL document CHEMBL1136521, “Tetrahydroquinoline-based selective estrogen receptor modulators (SERMs)” (Bioorg Med Chem Lett, 2003):
# The chains behind the UniProt entries cited, without tags or fusion partners. Where a name states a change or a piece, a line headed by the entry shows the natural chain unless it says otherwise.
# UniProt Q92731: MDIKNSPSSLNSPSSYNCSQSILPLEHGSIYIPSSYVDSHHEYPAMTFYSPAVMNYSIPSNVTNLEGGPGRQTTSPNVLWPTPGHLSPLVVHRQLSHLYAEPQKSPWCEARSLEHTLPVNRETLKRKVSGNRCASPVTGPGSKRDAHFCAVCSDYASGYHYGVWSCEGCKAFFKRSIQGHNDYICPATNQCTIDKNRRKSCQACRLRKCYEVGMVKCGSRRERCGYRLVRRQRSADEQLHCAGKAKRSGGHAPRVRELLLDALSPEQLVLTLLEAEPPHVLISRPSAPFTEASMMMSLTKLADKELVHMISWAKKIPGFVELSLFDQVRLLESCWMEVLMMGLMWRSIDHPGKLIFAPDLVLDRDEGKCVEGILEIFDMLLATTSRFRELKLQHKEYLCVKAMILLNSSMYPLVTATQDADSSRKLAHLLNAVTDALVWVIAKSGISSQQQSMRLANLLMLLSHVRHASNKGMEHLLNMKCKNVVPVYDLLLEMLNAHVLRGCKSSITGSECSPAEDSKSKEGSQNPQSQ
# UniProt P03372: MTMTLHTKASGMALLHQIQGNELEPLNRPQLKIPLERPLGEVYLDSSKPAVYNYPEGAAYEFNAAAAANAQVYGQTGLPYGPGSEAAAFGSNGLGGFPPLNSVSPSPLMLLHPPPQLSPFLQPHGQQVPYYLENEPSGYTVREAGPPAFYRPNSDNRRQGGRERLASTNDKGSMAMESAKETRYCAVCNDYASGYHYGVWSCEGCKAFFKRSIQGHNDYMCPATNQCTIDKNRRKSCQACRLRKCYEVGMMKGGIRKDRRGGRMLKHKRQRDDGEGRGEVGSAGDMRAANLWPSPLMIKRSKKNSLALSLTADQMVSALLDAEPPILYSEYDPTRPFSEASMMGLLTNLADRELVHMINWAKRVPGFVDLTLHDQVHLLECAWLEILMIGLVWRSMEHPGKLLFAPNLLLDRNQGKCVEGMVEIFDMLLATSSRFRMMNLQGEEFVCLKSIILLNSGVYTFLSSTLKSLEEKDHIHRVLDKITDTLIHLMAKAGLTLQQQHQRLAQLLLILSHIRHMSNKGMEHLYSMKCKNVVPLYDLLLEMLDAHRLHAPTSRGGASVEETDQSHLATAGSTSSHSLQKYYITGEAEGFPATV
# Molecular target: Estrogen receptor (Homo sapiens, UniProt Q92731+P03372)
compound,measurement,value
O=C(c1ccc(OCCN2CCCCC2)cc1)N1c2ccc(O)cc2CCC1c1ccccc1 (stereo unspecified),IC50,620 nM
